Measurements reported in patent US11542497B2, “Method for evaluating multiple different genes of interest” (THE UNIVERSITY OF TOKYO, priority 2017, dated 2023).

System: Ba/F3 cells expressing active EGFR mutants (11 kinds) or other oncoproteins (5 kinds)
Test: MANO method, drug sensitivity of 16 pooled Ba/F3 cell clones (Example 1, FIG. 3)
Type: cell-based
Description: HEK (Human Embryonic kidney) 293 cells and mouse 3T3 fibroblasts were obtained from the American Type Culture Collection and maintained in Dulbecco's modified Eagle medium-F-12 (DMEM-F12) supplemented with 10% FBS (both from Thermo Fisher Scientific, Waltham, Mass.). Ba/F3 cells were cultured in RPMI 1640 medium (Thermo Fisher Scientific) supplemented with 10% FBS and mouse IL-3 (20 U/mL; Sigma, St. Louis, Mo.).
First, 60-bp nucleotides (SEQ ID NO: 9) were inserted into the BamHI restriction enzyme site of pcx4-bleo vector (https://www.addgene.org/vector-database/2309/). […]
The recombinant plasmids prepared as described above were introduced together with packaging plasmids (Takara Bio, Shiga, Japan) into HEK293 cells to obtain recombinant retroviral particles. […] Cell transformation was assessed through either phase-contrast microscopy or staining with Giemsa solution. […]
The amplified PCR products were purified using AMPure beads (Beckman Coulter, Brea, Calif.). […] The library quality was assessed using a Qubit 2.0 fluorometer (Thermo Fisher Scientific) and the Agilent 2200 Tape Station system. The library was sequenced on an Illumina MiSeq (at 300 cycles) using Reagent Kit V2 to give 150-bp paired-end reads. These sequence reads included the following bar code-containing sequences: 5′-[…]-3′ (SEQ ID NO: 12) (where N denotes any nucleotide) and their complementary sequences. […]

COc1cc2ncnc(Nc3ccc(F)c(Cl)c3)c2cc1OCCCN1CCOCC1 [gefitinib]
cell death of cells having TKI-sensitive EGFR mutants: dose-dependent cell death
drug sensitivity of EGFR(T790M)-expressing Ba/F3 cell: resistant
